Data: patent US11447533B2, “Antimicrobial and anticancer peptides and conjugates and compositions, methods, articles and kits relating thereto” (George Mason Research Foundation, Inc., priority 2018, dated 2022)

Assay: Cytotoxicity (Alamar blue)
Type: cell-based
Conditions: human, primary lung epithelium cells; ~16 hours (overnight), reduced serum conditions; read-out: concentration decreasing resazurin reduction by 50% (LD50)
Description: FIGS. 11A-11B are graphs showing cytotoxicity against primary lung epithelium cells in serum-free condition. Cells were seeded in complete growth medium (Minimal essential medium supplemented with 10% fetal bovine serum) at near-confluence into a 96-well plate and allowed to settle for 24-hours. Media was then replaced to OptiMEM I reduced serum medium containing peptide or vehicle alone (DBPS) and cells were incubated overnight (16 hours). A resazurin based dye (Alamar blue) was added directly to media and conversion of resazurin to resorufin was evaluated following two hours. % Survival represents the proportion of viable cells in peptide treated cells relative to cells treated with vehicle alone. […] Each peptide was tested in triplicate.
FIG. 12 is a graph showing comparison of toxicities against Lung Primary Epithelial cells and Lung Cancerous Epithelial Cells, derived from H358 cell-line. […] Each peptide was tested in triplicate.
Cytotoxicity. Cells were seeded in complete growth medium (Minimal Essential Medium, MEMα, supplemented with 10% Fetal Bovine Serum) into a culture-treated 96-well plate at a density of 25000 cells per well. After 24 hours, culture media was aspirated and replaced with media containing the selected peptide. […] A ratio of reduction in treated versus untreated cells was calculated in order to determine overall cell viability. […]

## CC[C@H](C)[C@H](NC(=O)CN)C(=O)NCC(=O)N[C@@H](C)C(=O)N[C@H](C(=O)N[C@@H](CC(C)C)C(=O)N[C@@H](CCCCN)C(=O)N[C@H](C(=O)N[C@@H](CC(C)C)C(=O)N[C@H](C(=O)N[C@H](C(=O)NCC(=O)N[C@@H](CC(C)C)C(=O)N1CCC[C@H]1C(=O)N[C@@H](C)C(=O)N[C@@H](CC(C)C)C(=O)N[C@H](C(=O)N[C@@H](CO)C(=O)N[C@@H](Cc1c[nH]c2ccccc12)C(=O)N[C@H](C(=O)N[C@@H](CCCCN)C(=O)N[C@@H](CCCNC(=N)N)C(=O)N[C@@H](CCCCN)C(=O)N[C@@H](CCCNC(=N)N)C(=O)N[C@@H](CCC(N)=O)C(=O)N[C@@H](CCC(N)=O)C(N)=O)[C@@H](C)CC)[C@@H](C)CC)[C@@H](C)O)[C@@H](C)O)C(C)C)C(C)C [melittin]
  CC50 at 16 h: < 10 µM
